{"source": "paper PMC10958125", "about": "“A phase I study of docetaxel plus synthetic lycopene in metastatic prostate cancer patients” (Clinical and Translational Medicine, 2024)", "settings": "human, in vivo"}
{"smiles": "CC(C)=CCC/C(C)=C/C=C/C(C)=C/C=C/C(C)=C/C=C/C=C(C)/C=C/C=C(C)/C=C/C=C(\\C)CCC=C(C)C", "note": "[lycopene]", "values": [{"measurement": "Increase of plasma docetaxel C max with lycopene", "value": 15.1, "unit": "%"}]}
